# Test results published in PubChem BioAssay AID589 (National Center for Advancing Translational Sciences (NCATS), 2007).
# The list shows a part of the results, in another mix than the full data. Results filed as inconclusive are left out. Calls of active or inactive are those of the source. Rule as the data show it: active = max dye-equivalent concentration above about 10 nM; inconclusive = mostly about 1.1 nM to 9.6 nM; inactive = weaker than that.
# Assay: qHTS Assay for Spectroscopic Profiling in 4-MU Spectral Region
# Settings: compound autofluorescence, 340/450 nm, 4-MU equivalents; active compounds read high
# From the text: NIH Molecular Libraries Screening Centers Network [MLSCN] NIH Chemical Genomics Center [NCGC] […] Occasionally, the artifactual effect may originate from the compounds own spectral or other biophysical properties which generally tend to track its assay concentration. Pre-screening/profiling the library with respect to the compounds spectral properties should help one exclude false positives early on. While the most informative fluorescent profiling data set is obtained by performing a full excitation and emission scan of each well by using a monochromator-based plate reader, such an approach is practical only on a very limited scale as scanning each well requires long time. An alternative approach, applied here, is to perform plate reader scans using selected excitation and emission wavelength pairs to generate a multidimensional relational database that correlates compound concentration and the respective relative fluorescence intensity at a given wavelength set. A standard curve of 4-methylumbelliferone (4-MU) present on each plate as six-point concentration series, was used to compute a normalized fluorescence response, termed dye-equivalent concentration, for each compound at each concentration. […]
row,SMILES,max dye-equivalent concentration
1,COP1(=S)c2c(C)nn(CCC#N)c2N=C(c2ccc(F)cc2)N1C (stereo unspecified),active: 110 nM
